Bioassay records as filed in PubChem.
Mito fusion act – blocks mitochondrial division or promotes mitochondrial fusion; S. cerevisiae fusion-defective mutant growth rescue, CellTiterGlo 48 h; Potency, µM (top dose mostly 46.1 µM), actives largely listed as activators; 0.23% of 320,000 active; further: nearly all actives have a fitted effect of over 45% in size
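Luminescent cell viability in 1536-well qHTS format served as the measure of rescued growth in ts fusion-mutant S. cerevisiae cultured on non-fermentable YPEG for 48 hours at 37C.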
Nrf2 block – inhibitors of Nrf2 signaling; A549 ARE-Fluc reporter, luciferase luminescence, 18-24 h; Potency, µM (doses to about 46 µM), actives largely listed as inhibitors; 2.1% of 360,000 active; AID 504444; further: nearly all actives have a fitted effect of over 60% in size
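Nrf2 activity is the BugLite luminescence, read 15 min after reagent at room temperature, following CellTiter-Fluor cytotoxicity readout (30 min, 37C). Compound titrations were applied for 18-24 h to 5000 A549 ARE_Fluc cells/well in 5% FBS OPTI-MEM.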
Nrf2 activator – activators of Nrf2 (ARE) signaling; AREc32 ARE-luciferase reporter (MCF7-derived line), luminescence, 24 h; Potency, µM (doses to about 46.1 µM), actives largely listed as activators; 0.31% of 410,000 active; AID 624171; further: nearly all actives have a fitted effect of over 65% in size
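Reporter line AREc32 (ARE-Fluc), seeded overnight in OPTI-MEM with 5% FBS; compound pin-transferred, 24 hr at 37 deg C, 5% CO2; luminescent read-out.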
Glioma ERSR ind – inducers of ER stress response in human glioma cells; U87-MG GRP78 promoter luciferase reporter, 16 h; Potency, µM, actives largely listed as activators; 0.02% of 420,000 active; further: series mostly up to about 76 µM; nearly all actives have a fitted effect of over 35% in size
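Stably transfected U87-MG glioma cells carrying a GRP78-based luciferase sensor; 16 h compound incubation. Luminescence end-point read 10 min after Bright-Glo addition at room temperature.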
A549 tox – counter-screen for Nrf2 inhibitors: cytotoxicity in A549 cells; A549 ARE-Fluc cells, CellTiter-Fluor viability, 18-24 h; Potency, µM (titrated, usually from 46 µM), most hits filed as inhibitors; 0.16% of 390,000 active; AID 504648
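A549 ARE-Fluc cells in 5% FBS OPTI-MEM, 5000 cells/well, rested 2 h then exposed to compounds in concentration-response for 18-24 h at 37 °C. Viability by CellTiter-Fluor fluorescence (Ex 405/Em 525) after 30 min; luciferase luminescence (BugLite, 15 min, RT) read afterwards.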
miR-21 reporter – raises the signal of a miR-21 reporter | Potency, µM (doses to about 38.3 µM) | HeLa miR-21 FLuc reporter, luciferase, 48 h | AID 2288 | 340,000 tested, under 10 active; active = well fitted rising curve with a large enough effect; inconclusive = small, poorly fitted or top-dose-only effect; inactive = no such curve, though single readings can be large or run the other way;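 also: miR-21 action dims this reporter so a rising signal means less miR-21 action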
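HeLa cells stably expressing CMV-driven firefly luciferase with a downstream miR-21 binding sequence, endogenously expressing miR-21, were treated with titrations (up to about 40uM final) for 48 hours at 37 degree Celsius. Luciferase luminescence was read after lysis.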
Each line names hits and unclear results; the compound was inactive in the other large screens. An excerpt weighted towards active compounds, which were near 2.3% of everything screened. Unless noted, the call rests on the fitted dose curve; in most records, active means well fitted curve in the direction sought with a large enough effect; inconclusive means small, poorly fitted or top-dose-only effect, or another doubt; inactive means no such curve, though single readings can be large; an effect the other way counts as inactive or inconclusive.

N/C(=N\OC(=O)/C=C/c1ccccc1)c1ccccc1	Nrf2 block inconclusive, Nrf2 activator 11µM
N/C(=N\OC(=O)/C=C/c1ccccc1)c1ccc(Cl)cc1	none
N/C(=N\OC(=O)c1ccco1)c1cccc(Br)c1	Nrf2 block inconclusive, Nrf2 activator 4.5µM
N/C(=N\OC(=O)c1ccco1)c1cccc([N+](=O)[O-])c1	Nrf2 block inconclusive, Nrf2 activator 14µM
CCOc1cccc(=O)c2c(C)n(-c3ccc(C(=O)O)cc3)c(C)c12	none
Cc1cc(C)cc(NC(=O)CSc2oc(-c3ccco3)nc2S(=O)(=O)c2ccccc2)c1	none (no result: Mito fusion act)
Cc1cc(C)cc(C(=O)OCC(=O)Nc2cccc(S(=O)(=O)NC3=NCCCCC3)c2)c1	Nrf2 block 23µM, A549 tox inconclusive
CC(C)(C)c1ccc(OCCC(=O)Nc2cccc(S(=O)(=O)NC3=NCCCCC3)c2)cc1	Nrf2 block 18µM, A549 tox inconclusive (no result: miR-21 reporter)
O=C(COC(=O)c1ccccc1)Nc1cccc(S(=O)(=O)NC2=NCCCCC2)c1	none
O=C(Cc1csc(-c2ccc(Cl)cc2)n1)Nc1cccc(S(=O)(=O)NC2=NCCC2)c1	Nrf2 block 23µM, A549 tox inconclusive (no result: miR-21 reporter)
O=C(/C=C/c1ccc(OC(F)F)cc1)Nc1cccc(S(=O)(=O)NC2=NCCCCC2)c1	Nrf2 block 18µM, A549 tox inconclusive
O=C(Cc1csc(-c2ccc(F)cc2)n1)Nc1cccc(S(=O)(=O)NC2=NCCC2)c1	Nrf2 block inconclusive (no result: miR-21 reporter)
COC(=O)C(Cc1ccccc1)NC(=O)c1cc(S(=O)(=O)N(C)C)ccc1Cl (stereo not drawn)	none
Cc1cn2c(=O)c(S(=O)(=O)NC(C)c3ccccc3)c(C)nc2s1 (stereo not drawn)	Nrf2 block inconclusive (no result: Mito fusion act)
COc1ccc(C2=CC(=O)OC(C)(c3ccccc3)O2)cc1 (stereo not drawn)	none
O=C(Nc1nccs1)C1CCN(S(=O)(=O)c2c(Cl)cccc2Cl)CC1	Nrf2 block 16µM
COc1ccc(CC(=O)OCC(=O)c2ccc(OC)c(OC)c2)cc1	none (no result: miR-21 reporter)
COc1ccc(C)cc1-n1nnnc1SCc1cc(=O)n2cc(C)ccc2n1	Mito fusion act inconclusive, Nrf2 block 13µM
Cc1nc2ccc(NC(=O)c3ccc4ccccc4n3)cc2s1	Mito fusion act 4µM, Nrf2 block inconclusive
Cc1nc2ccc(NC(=O)c3ccccc3)cc2s1	Nrf2 block inconclusive
CN(c1ccccc1)S(=O)(=O)c1cccc(NC(=O)CSc2nncs2)c1	Nrf2 block 21µM
COc1ccccc1N(C)S(=O)(=O)c1ccc(C(=O)Nc2ccc3nc(C)sc3c2)cc1	Mito fusion act inconclusive, Nrf2 block 18µM
Cc1nc2ccc(NC(=O)c3cccc(S(=O)(=O)N(C)c4ccccc4)c3)cc2s1	Mito fusion act inconclusive, Nrf2 block 21µM, A549 tox inconclusive
CCCOc1ccc(C(C)=O)cc1CC(C(=O)OCC)C(=O)OCC	none
O=C(Nc1ccc(S(=O)(=O)N(Cc2ccccc2)c2ccccc2)cc1)c1ccc(F)cc1	Nrf2 block 23µM (no result: Mito fusion act)
Cc1ccc(N(C)S(=O)(=O)c2cccc(C(=O)Nc3nc4ccccc4[nH]3)c2)cc1	Mito fusion act 20µM, Nrf2 block inconclusive
CN(C)c1cccc(C(=O)Nc2nc3ccccc3[nH]2)c1	Nrf2 block inconclusive
Cn1c(=O)c2c(ncn2CC(=O)Nc2cc(S(=O)(=O)N3CCCCC3)ccc2Cl)n(C)c1=O	Nrf2 block 21µM (no result: Mito fusion act, miR-21 reporter)
CN(c1ccccc1)S(=O)(=O)c1cccc(NC(=O)c2ccc3ncsc3c2)c1	Nrf2 block 16µM, miR-21 reporter inconclusive
CN(c1ccccc1)S(=O)(=O)c1cccc(NC(=O)c2cccc(C#N)c2)c1	Nrf2 block inconclusive, A549 tox inconclusive (no result: miR-21 reporter)
CCCC1N2CC3([N+](=O)[O-])CN1CC([N+](=O)[O-])(C2)C3(C)C (stereo not drawn)	none
CN(c1ccccc1)S(=O)(=O)c1cccc(NC(=O)Cn2cnc3c2c(=O)n(C)c(=O)n3C)c1	Nrf2 block 10µM
COCc1ccc(C(=O)Nc2cccc(S(=O)(=O)N(C)c3ccccc3)c2)cc1	Nrf2 block 18µM (no result: Mito fusion act, miR-21 reporter)
Cn1c(=O)c2c(ncn2CC(=O)Nc2ccccc2)n(C)c1=O	none
COC(=O)c1cccc(NC(=O)c2ccc(S(=O)(=O)N(C)c3ccccc3OC)cc2)c1	none (no result: Mito fusion act, Nrf2 block, A549 tox, miR-21 reporter)
CN(c1ccc(C(=O)Nc2cccc(O)c2)cc1)S(=O)(=O)c1ccccc1	none
COc1ccccc1N(C)S(=O)(=O)c1ccc(C(=O)Nc2cccc(Br)c2)cc1	Nrf2 block 16µM (no result: Mito fusion act, miR-21 reporter)
CN(c1ccccc1)S(=O)(=O)c1ccc(NC(=O)c2ccccc2)cc1	Mito fusion act 22µM, Nrf2 block inconclusive
Cc1cc(C)nc(SCC(=O)N/N=C\C(Br)=C\c2ccccc2)n1	Nrf2 block inconclusive
COCc1cc(=O)[nH]c(/N=C(\N)Nc2c(F)cccc2F)n1	none
COc1ccccc1N(C)S(=O)(=O)c1ccc(C(=O)NCC(C)C)cc1	Nrf2 block inconclusive
COC(=O)c1ccc(CNC(=O)c2ccc(S(=O)(=O)N(C)c3ccccc3OC)cc2)cc1	Nrf2 block 23µM (no result: miR-21 reporter)
O=C(O)C1CC=CCC1C(=O)N1CCc2ccccc21 (stereo not drawn)	none
Cc1cc(C)n2nc(-c3ccco3)nc2n1	Nrf2 activator 13µM
Cc1cc(Nc2ccc(Br)c(C)c2)n2nc(-c3ccco3)nc2n1	none (no result: Mito fusion act, Nrf2 block)
O=C(C1CC1)N1CCC(C(O)(c2ccccc2)c2ccccc2)CC1	none
CC(C)(C)C(=O)N1CCC[C@H]1C(O)(c1ccccc1)c1ccccc1	Mito fusion act 35µM
c1ccc2[nH]c3cc4ncnc4cc3nc2c1	Nrf2 block 5.8µM, A549 tox inconclusive
FC(F)c1nc2ccccc2[nH]1	none
CCOc1cc(/C=C2/C(=O)ON=C2C)ccc1OCc1ccccc1F	Nrf2 block 4.1µM, A549 tox inconclusive
CC(=O)Nc1ccc(C(=O)N2CCCC2)cc1	none
O=[N+]([O-])c1cccnc1N1CCC(c2cc(-c3cccc(C(F)(F)F)c3)n[nH]2)CC1	Nrf2 block 21µM, A549 tox inconclusive
O=[N+]([O-])c1cccnc1N1CCC(c2cc(-c3ccc(Cl)cc3Cl)n[nH]2)CC1	Nrf2 block 18µM, A549 tox inconclusive
COc1ccc(OC)c(-c2cc(C3CCN(c4ncccc4[N+](=O)[O-])CC3)[nH]n2)c1	Nrf2 block inconclusive, A549 tox inconclusive
CC(=O)c1ccc(N2CCC(c3cc(-c4ccc(Cl)cc4Cl)n[nH]3)CC2)c([N+](=O)[O-])c1	Nrf2 block 16µM, A549 tox inconclusive
COc1ccc2[nH]cc(CCNc3ccnc(-c4ccccc4C(F)(F)F)n3)c2c1	none (no result: Mito fusion act, Nrf2 block, Nrf2 activator, A549 tox, miR-21 reporter)
